Test results published in PMC3472974, “The Bite of the Honeybee: 2-Heptanone Secreted from Honeybee Mandibles during a Bite Acts as a Local Anaesthetic in Insects and Mammals” (PLoS ONE, 2012).

By UniProt entry, the sequences of proteins in these tests, tags left out.
UniProt Q99250, whole entry: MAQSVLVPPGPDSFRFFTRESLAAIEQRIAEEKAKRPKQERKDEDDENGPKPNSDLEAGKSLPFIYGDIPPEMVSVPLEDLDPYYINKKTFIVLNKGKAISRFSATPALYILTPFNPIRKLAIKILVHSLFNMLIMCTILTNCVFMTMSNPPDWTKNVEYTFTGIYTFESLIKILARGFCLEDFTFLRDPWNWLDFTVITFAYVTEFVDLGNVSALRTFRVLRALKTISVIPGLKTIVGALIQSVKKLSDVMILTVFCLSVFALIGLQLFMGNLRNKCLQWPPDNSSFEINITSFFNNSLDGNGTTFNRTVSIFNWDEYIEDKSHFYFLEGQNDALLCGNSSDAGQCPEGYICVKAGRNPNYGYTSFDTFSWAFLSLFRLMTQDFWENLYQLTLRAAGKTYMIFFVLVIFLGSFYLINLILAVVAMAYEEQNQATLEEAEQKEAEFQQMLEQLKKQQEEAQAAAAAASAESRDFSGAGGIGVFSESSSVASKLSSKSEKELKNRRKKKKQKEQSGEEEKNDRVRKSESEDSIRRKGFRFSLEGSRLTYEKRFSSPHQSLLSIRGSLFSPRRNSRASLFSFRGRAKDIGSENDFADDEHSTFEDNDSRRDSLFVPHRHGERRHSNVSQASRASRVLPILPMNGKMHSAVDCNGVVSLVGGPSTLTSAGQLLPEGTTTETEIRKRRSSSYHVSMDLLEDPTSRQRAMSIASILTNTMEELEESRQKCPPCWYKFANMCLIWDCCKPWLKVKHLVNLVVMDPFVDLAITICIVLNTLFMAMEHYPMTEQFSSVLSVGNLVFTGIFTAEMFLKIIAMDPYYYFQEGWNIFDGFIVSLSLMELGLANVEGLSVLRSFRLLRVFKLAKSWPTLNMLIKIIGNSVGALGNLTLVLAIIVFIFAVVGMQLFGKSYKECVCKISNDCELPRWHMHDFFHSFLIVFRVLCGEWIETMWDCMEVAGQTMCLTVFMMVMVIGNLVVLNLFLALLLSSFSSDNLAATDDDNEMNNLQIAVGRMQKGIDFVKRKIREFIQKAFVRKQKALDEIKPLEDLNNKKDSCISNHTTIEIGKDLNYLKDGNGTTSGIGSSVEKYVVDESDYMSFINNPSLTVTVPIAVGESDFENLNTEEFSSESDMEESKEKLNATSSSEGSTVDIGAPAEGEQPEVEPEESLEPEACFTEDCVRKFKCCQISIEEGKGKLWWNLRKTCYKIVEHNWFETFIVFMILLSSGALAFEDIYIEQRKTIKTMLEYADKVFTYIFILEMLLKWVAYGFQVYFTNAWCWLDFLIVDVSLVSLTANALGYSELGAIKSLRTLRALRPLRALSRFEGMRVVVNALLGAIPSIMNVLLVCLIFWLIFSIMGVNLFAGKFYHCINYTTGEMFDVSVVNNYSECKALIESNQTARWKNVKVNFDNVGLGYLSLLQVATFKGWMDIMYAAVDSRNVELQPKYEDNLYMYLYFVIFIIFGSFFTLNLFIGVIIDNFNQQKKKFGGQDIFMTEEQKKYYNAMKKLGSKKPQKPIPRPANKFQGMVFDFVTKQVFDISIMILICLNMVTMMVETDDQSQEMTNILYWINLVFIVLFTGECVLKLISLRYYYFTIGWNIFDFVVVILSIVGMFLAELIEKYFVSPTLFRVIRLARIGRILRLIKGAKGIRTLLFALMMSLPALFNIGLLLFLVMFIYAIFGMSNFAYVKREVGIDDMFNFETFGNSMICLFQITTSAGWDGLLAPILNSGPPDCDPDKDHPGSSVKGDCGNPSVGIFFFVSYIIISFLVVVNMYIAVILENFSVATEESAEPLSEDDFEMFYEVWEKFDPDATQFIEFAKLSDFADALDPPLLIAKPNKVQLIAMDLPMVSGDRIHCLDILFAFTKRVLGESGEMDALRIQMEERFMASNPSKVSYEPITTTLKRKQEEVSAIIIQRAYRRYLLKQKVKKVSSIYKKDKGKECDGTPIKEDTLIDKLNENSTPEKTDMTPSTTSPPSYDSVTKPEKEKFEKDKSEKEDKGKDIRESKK

Biological target: T1, hNav1.2 channels (Homo sapiens, UniProt Q99250)
T1 construct: expressed in transfected cells; host or cells: CHO-K1 (ATCC CCL-61)
Assay: Patch-clamp (PatchXpress 7000A) on transfected CHO cells, hNav1.2
Type: cell-based
Details: n = 6, mean ± SEM, 2-H exposure limited to 3 min
Excerpt: To test whether 2-H can act by blocking VGNaCs, the PatchXpress 7000A was used. Mammalian CHO (Chinese hamster ovary) transfected with ion hNav1.2 and hNav1.6 channels cDNAs (SCN2A and SCN8A genes) were exposed to 2-H under both tonic and phasic conditions. The mammalian CHO-K1 epithelial embryonic cell line (ATCC number CCL-61) from Cricetulus griseus was obtained from ATCC, Manassas, VA. CHO-K1 cells were transfected with either hNav1.2 or hNav1.6 channel cDNA (SCN2A and SCN8A genes, respectively) and were exposed to 2-H under both tonic and phasic conditions.
The effects of 2-H were evaluated on hNav1.2 at 0.73, 1.46, 2.19, and 2.92 mg/mL and on hNav1.6 channels at 0.1, 0.36, 0.73, and 1.46 mg/mL, with each concentration tested in at least six cells (n = 6). Cells were exposed to each concentration of 2-H and measurements of the inward current were obtained within the first 3 min of exposure. […] Since the PatchXpress has open cell chambers where the testing occurs, there is no way to hermetically seal the experiment.
Based on this analysis, we estimated the IC50.

## CCN(CC)CC(=O)Nc1c(C)cccc1C [lidocaine]
hNav1.2 IC50, Phasic Experiment
  IC50: 427 µM
hNav1.2 IC50, Tonic Experiment
  IC50: 1110 µM
